Target: T1, GCN2 (Homo sapiens, UniProt Q9P2K8)
T1 sequence (Q9P2K8 192-1024): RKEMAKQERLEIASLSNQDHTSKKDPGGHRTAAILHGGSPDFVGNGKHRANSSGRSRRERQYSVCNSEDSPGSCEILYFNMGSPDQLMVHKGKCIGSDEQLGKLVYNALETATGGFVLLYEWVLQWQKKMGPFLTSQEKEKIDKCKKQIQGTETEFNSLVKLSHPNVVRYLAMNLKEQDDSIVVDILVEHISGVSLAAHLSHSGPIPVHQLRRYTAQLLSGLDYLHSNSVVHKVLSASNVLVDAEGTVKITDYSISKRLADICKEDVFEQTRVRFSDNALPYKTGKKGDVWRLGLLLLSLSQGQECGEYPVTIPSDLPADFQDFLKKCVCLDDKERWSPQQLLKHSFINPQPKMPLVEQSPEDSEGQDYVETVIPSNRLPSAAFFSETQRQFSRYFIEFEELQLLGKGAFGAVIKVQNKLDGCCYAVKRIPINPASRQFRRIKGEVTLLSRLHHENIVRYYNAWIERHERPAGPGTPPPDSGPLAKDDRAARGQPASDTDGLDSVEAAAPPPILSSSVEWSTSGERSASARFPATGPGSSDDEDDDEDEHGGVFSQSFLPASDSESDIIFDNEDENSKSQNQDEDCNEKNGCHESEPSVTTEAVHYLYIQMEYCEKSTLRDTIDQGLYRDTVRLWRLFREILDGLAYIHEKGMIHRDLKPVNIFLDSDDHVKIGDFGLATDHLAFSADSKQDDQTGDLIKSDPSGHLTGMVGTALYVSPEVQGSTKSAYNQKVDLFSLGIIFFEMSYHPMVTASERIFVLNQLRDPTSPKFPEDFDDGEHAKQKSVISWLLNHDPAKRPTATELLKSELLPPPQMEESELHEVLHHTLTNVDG
Parameters: gene EIF2AK4

in vitro kinase assay with ATP titration, 1 μM compound; raised apparent ATP aff: ~ 1 μM
Structure (SMILES): CCOc1cc2ncc(C#N)c(Nc3ccc(OCc4ccccn4)c(Cl)c3)c2cc1NC(=O)/C=C/CN(C)C [Neratinib]

From article PMC10491595, “Activation of the integrated stress response by inhibitors of its kinases” (Nature Communications, 2023)
